These results are taken from PubChem BioAssay AID2445 (The Scripps Research Institute Molecular Screening Center, 2010).

Protein sequences, listed by entry. Tags and fused reporters are not part of them.
UniProt P30559, whole entry: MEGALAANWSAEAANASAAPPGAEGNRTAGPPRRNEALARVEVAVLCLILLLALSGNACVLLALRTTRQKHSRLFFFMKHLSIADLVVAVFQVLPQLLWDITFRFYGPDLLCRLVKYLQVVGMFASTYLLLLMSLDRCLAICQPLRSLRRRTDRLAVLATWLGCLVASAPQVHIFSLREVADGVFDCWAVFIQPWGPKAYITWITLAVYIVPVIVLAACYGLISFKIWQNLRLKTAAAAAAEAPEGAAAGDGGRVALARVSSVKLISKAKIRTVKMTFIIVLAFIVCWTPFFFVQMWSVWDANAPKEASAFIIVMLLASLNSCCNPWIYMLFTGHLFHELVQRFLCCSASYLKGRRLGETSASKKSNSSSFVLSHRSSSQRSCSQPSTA

This is a selection; strong and weak results do not stand in their true shares. Some tests of the compounds listed are not included; inactive here does not mean inactive elsewhere. The source made the active and inactive calls.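 The calls were made as follows: active = activation above that plate's cutoff, the mean activation of tested compounds plus 3 SD (cut at about 6.6% in these data, passing the limit was not always enough); inactive = the rest.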

In this assay the target is Oxytocin receptor (Homo sapiens) (UniProt P30559). Put plainly: enhancers of oxytocin-evoked OXTR calcium signal – fluorescence, CHO-OTR cells, Fluo-8 calcium, primary screen (AID 2445).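 Also: 100% uses oxytocin at 75 nM as the full agonist control.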 Conditions: Fluo-8 calcium fluorescence, potentiator mode, at 3 µM, stronger effect = higher value, 0% = oxytocin EC15, 100% = EC100.
As for `COc1ccc(C(=O)NCC2(N(C)C)CCCCC2)cc1`, the activation was inactive: 1.28%. In the case of `O=C(NCC1(N2CCCCC2)CCCCC1)c1cccc(Br)c1` it was inactive: -0.12%. Next, `Cc1cc(C(=O)NCC2(N3CCCCC3)CCCCC2)ccc1[N+](=O)[O-]`: inactive: -6.11%; `CCN1CCCC(OC(=O)C2(O)c3ccccc3C=Cc3ccccc32)C1` (centres undefined): inactive: -10.6%; `O=C(NCC1(N2CCCCC2)CCCCC1)c1cc(F)c(F)cc1Cl`: inactive: 2.82%. `C=CCN1CCN(CCOC(=O)C(O)(c2ccccc2)c2ccccc2)CC1`: the activation is inactive: -8.87%. Consider `CN(C)C1CCCC1OC(=O)C(O)(c1ccccc1)c1ccccc1` (centres undefined), for which the activation was inactive: 3%. With `CN(C)c1ccc(C(=O)NCC2(N(C)C)CCCCC2)cc1`, the activation is inactive: -3.12%. For `Cc1ccccc1C(=O)NCC1(N2CCCCC2)CCCCC1`, the activation is inactive: -2.5%.

Turning to `Cc1ccc(C(=O)NCC2(N3CCCCC3)CCCCC2)cc1`, the activation was inactive: -5.27%. Regarding `COc1cc(SC)ccc1C(=O)NCC1(N(C)C)CCCCC1`, the activation was inactive: -9.54%.

`CCN(CC)CC(C)C(C)OC(=O)C(O)(c1ccccc1)c1ccccc1` (centres undefined): the activation was inactive: -4.7%.

Consider `CC(C)N1C(=O)CC2(CCN(CCOC(=O)C(O)(c3ccccc3)c3ccccc3)CC2)C1=O`, for which the activation is inactive: -1.52%. In the case of `CN1[C@@H]2CC[C@H]1CC(OC(=O)C(O)(c1ccccc1)c1ccccc1)C2` (some centres undefined) it was inactive: -2.14%; in that of `O=C(NCC1(N2CCCCC2)CCCCC1)c1cc([N+](=O)[O-])ccc1Cl`, inactive: -11.9%. As for `CC(C)Oc1ccc(C(=O)NCC2(N(C)C)CCCCC2)cc1`, the activation was inactive: -4.84%. On to `CN(C)c1cccc(C(=O)NCC2(N(C)C)CCCCC2)c1`, for which the activation was inactive: -2.31%. Next, `COc1ccc(Br)c(C(=O)NCC2(N3CCCCC3)CCCCC2)c1`: inactive: -1.4%; `O=C(OC1CN2CCC1CC2)C(CO)(c1ccccc1)c1ccccc1` (centres undefined): inactive: -12.4%. As for `O=C(NCC1(N2CCCCC2)CCCCC1)c1cccc(Cl)c1`, the activation is inactive: -1.8%.

As for `COc1ccc(Cl)cc1C(=O)NCC1(N(C)C)CCCCC1`, the activation was inactive: -0.61%. Take `COc1cccc(C(=O)NCC2(N3CCCCC3)CCCCC2)c1`: the activation was inactive: -4.53%. For `COc1cc(C(=O)NCC2(N(C)C)CCCCC2)c([N+](=O)[O-])cc1OC`, the activation was inactive: -3.01%. Next, `CN(C)C1(CNC(=O)c2ccc(Br)cc2)CCCCC1`: inactive: -9.69%.
